Results on one compound are retold here after ChEMBL document CHEMBL1127575, “Synthesis of androst-5-en-7-ones and androsta-3,5-dien-7-ones and their related 7-deoxy analogs as conformational and catalytic probes for the active site of aromatase” (J Med Chem, 1994).

By UniProt entry, the sequences of proteins in these tests, tags left out. Where a name states a change or a piece, a line headed by the entry shows the natural chain unless it says otherwise.
UniProt P11511: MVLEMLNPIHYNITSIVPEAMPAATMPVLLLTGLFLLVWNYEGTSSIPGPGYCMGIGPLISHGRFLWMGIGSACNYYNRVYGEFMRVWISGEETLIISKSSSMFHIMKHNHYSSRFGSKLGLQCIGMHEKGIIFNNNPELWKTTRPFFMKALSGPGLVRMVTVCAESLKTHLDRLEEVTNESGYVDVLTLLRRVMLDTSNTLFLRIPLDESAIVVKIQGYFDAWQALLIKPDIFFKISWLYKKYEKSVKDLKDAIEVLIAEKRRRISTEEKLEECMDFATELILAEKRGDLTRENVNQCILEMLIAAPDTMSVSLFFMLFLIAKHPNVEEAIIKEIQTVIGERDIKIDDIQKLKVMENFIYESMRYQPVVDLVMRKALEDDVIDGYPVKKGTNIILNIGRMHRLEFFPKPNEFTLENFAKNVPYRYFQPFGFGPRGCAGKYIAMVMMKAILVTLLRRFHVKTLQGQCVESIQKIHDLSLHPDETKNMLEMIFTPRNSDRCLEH

Test [1] concerns the target T1, Aromatase (Homo sapiens, UniProt P11511). Description: The binding affinity was determined on Cytochrome P450 19A1 by analysis of Dixon plot.
For test [2], the target named is T1, Aromatase. Description: In vitro competitive inhibitory activity was measured on Cytochrome P450 19A1 of human placental microsomes.

For `C[C@]12CCCC=C1CC[C@@H]1[C@@H]2CC[C@]2(C)C(=O)CC[C@@H]12`, the inhibition constant (Ki) at Aromatase [1] was found to be 13 nM. Besides, the IC50 on Aromatase [2] came out at 110 nM.

As usually defined, the Ki is the equilibrium dissociation constant of an inhibitor or competing ligand from its target. Read a high Ki as a looser hold on the target. A word on the IC50: it is the concentration at which inhibition is half-maximal. A low value points to greater potency in that assay.
